The target of the test is PDGFRβ (Homo sapiens, UniProt P09619). In words: PDGFRβ kinase inhibition, whole-cell assay. It counts as cell-based. To be noted: read-out: kinase inhibition IC50 [whole-cell assays] PDGFRβ.

Chains of the proteins cited; added tags and fusions are not shown. Residues count along the entry.
UniProt P09619, 33-1106, species assumed: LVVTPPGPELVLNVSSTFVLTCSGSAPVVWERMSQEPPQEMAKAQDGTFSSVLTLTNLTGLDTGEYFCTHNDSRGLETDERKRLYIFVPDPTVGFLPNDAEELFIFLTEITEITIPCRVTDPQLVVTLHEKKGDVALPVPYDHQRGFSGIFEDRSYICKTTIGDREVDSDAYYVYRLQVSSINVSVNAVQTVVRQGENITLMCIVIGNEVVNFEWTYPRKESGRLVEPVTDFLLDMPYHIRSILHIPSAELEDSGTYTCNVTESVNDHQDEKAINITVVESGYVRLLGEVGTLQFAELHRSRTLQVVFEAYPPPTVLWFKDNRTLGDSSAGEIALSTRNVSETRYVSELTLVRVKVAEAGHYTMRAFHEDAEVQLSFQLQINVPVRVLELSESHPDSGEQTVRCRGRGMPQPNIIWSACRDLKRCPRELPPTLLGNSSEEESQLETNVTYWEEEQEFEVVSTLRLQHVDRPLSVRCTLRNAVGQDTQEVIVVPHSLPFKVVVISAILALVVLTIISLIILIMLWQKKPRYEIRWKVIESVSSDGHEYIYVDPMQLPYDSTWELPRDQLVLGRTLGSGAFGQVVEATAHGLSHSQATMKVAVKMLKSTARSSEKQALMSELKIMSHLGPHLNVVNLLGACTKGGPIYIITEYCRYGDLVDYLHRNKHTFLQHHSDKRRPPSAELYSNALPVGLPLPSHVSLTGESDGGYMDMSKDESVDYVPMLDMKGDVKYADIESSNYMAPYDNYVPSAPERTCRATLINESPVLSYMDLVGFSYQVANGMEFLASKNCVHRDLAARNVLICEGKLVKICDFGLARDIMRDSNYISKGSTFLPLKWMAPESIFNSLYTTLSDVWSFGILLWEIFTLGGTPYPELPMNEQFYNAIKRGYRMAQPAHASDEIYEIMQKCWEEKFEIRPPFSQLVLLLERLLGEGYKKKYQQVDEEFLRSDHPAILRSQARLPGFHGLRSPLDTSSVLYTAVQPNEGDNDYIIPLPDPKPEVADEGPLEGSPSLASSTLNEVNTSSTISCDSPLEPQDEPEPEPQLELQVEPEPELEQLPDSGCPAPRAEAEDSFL

Molecules are shown by their SMILES.

Usually IC50 stands for the point on the concentration scale where inhibition reaches its midpoint.

For the compound `CN(C)c1ccc(/C=C2\C(=O)Nc3ccccc32)cc1` [DMBI, reference compound], the IC50 amounted to 3.75 nM.

The record behind these values is patent US10906910B2, “Substituted bicyclic pyrimidine compounds with tubulin and multiple receptor inhibition” (Duquesne University of the Holy Spirit, priority 2014, dated 2021).
